Results taken from PubChem BioAssay AID845 (Columbia University Molecular Screening Center, 2007).
This is a selection; strong and weak results do not stand in their true shares. Calls of active or inactive are those of the source.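 How the source made its calls: active means cell count reduction more than 3 SD above the screen-wide mean (cut at about 70% in these data); inactive means the rest.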

Experiment: HUVEC cell count loss after compound exposure – imaging, Hoechst nuclear count, IL-1B stimulus, cytotoxicity control for IL-1B NFkB translocation project, primary screen (AID 845);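 further: normalized per plate to untreated control cells as the no-loss baseline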
Conditions: IL-1B stimulated, at 2 µM, active compounds read high

| Compound | cell count reduction |
| --- | --- |
| ClCCSc1nnc(-c2cccnc2)o1 | inactive: -12.1% |
